{"source": "patent US10046060B2", "about": "“Co-administration of an agent linked to an internalization peptide with an anti-inflammatory” (NoNO Inc., priority 2007, dated 2018)", "origin": "cited, not measured here", "conditions": "Table 1 comment; cited from earlier work", "note": "Some compounds may have been tested in ways that are not shown here.", "data": [{"smiles": "CCC(=O)N(c1ccccc1)C1(C(=O)OC)CCN(CCC(=O)OC)CC1", "values": [{"measurement": "halflife", "result": 3.5, "unit": "min"}]}]}
